Measurements from patent US20240325557A1 (INNATE PHARMA, published 2024).

Protein sequences, listed by entry. Tags and fused reporters are not part of them. Residues count along the entry.
UniProt Q9NQS3, 58-549 limits assumed: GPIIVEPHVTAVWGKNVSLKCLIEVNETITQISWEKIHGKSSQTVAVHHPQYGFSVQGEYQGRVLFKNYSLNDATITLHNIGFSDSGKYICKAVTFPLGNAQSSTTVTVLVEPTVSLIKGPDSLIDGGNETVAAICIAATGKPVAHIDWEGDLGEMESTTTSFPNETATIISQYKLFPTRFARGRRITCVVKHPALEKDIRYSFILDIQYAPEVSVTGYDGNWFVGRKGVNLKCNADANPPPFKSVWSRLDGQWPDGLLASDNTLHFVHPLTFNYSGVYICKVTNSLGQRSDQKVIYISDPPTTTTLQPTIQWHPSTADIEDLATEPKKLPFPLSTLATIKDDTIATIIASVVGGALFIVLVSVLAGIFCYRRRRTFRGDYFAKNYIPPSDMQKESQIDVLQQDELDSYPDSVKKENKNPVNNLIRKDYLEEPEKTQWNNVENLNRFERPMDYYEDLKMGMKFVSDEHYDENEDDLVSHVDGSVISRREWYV

Molecular target: human Nectin 3 on CHO cells (human, UniProt Q9NQS3 58-549)
Assay: flow cytometry on CHO cells expressing human Nectin 3
Procedure: Anti-Nectin-4 antibodies were tested by flow cytometry for binding to different CHO cell lines made to express respectively the human Nectin 1, Nectin 2, Nectin 3 and PVR proteins. The expression of each cell lines was controlled and validated with known respectively the anti-human Nectin1, anti-human Nectin2, anti-human Nectin3 and anti-human PVR antibodies. The mature amino acid sequence of the proteins expressed by the cells were as follows:
Nectin 1, Nectin 2, Nectin 3 and PVR proteins as in Example 12. […] Epitope mapping was carried out by assessing competition for binding to Nectin-4 by SPR as in Example 14.

B1: antibody 6C11B (antibody, human IgG1, V domains shown)
VH: EVQLQQSGPELVKPGASVKISCKTSGYTFTEYTIHWVKQNHGKSLEWIGRINPKNGDIIHNQNFMGKATLTVDKSSSTAYMELRSLTSEDSAVCYCARSGYGSSYGFAYWGQGTLVTVSA
VL: DIVMTQSPTSLVVSLGQRATISCRASQSVTTPRYSYMHWYQQKPGQPPKLLIKYASNLESGVPARFSGSGSGTDFTLNIHPVEEEDTATYYCQHSWEIPYTFGGGTKLEIK
notes: also called 6CB11; CHG1-M-4N4-6C11B
binding result: no binding

B2: antibody 6A7 (antibody, human IgG1, V domains shown)
VH: QVQLKESGAELVKPGASVKLSCKASGYTFTSYWMHWVKQRPGHGLEWVGEIDPSDSYTNYNQKFKGKATLTIDKSSSTVYMQLSSLTSEDSAVYYCARSGNYDAMDYWGQGTSVTVSA
VL: DIVMTQAAFSSAVTLGTSASISCRSSKSLLHSNGITYLYWYLQKPGQSPHFLIYQMSNLASGVPDRFTSSGSGTDFTLRISRVEAEDVGVYYCAQNLELPWTFGGGTKLEIK
notes: also called CHG1-M-4N4-6A7
binding result: no binding
